Measured values published in patent US20190010167A1, “INHIBITORS OF THE MENIN-MLL INTERACTION” (Vitae Pharmaceuticals, Inc., priority 2015, published 2019).

Sequences of proteins named here, by UniProt entry; tags and fusion partners are left off.
UniProt O00255, whole entry: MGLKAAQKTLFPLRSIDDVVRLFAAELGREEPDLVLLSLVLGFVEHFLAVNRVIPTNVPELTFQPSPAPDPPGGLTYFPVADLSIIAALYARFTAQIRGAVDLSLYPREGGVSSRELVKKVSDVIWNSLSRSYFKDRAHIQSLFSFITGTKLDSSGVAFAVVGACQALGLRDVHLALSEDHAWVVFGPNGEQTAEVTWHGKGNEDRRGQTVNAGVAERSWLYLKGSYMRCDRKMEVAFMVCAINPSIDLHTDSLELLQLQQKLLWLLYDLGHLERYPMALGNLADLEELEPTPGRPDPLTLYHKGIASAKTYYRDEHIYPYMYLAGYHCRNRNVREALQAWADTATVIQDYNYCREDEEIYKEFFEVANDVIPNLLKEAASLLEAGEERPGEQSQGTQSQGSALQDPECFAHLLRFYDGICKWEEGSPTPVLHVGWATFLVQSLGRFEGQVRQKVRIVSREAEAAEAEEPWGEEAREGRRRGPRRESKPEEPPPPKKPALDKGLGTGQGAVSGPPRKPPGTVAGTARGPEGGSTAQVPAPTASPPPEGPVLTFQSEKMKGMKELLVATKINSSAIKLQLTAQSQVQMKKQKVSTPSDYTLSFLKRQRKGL

Biological target: wild-type menin / MLL-AF9 fusion protein (Homo sapiens, UniProt O00255)
Test: AlphaLISA menin/MLL binding assay, wild-type menin (Assay 1)
Settings: read-out: Assay 1 Wild Type Menin IC50, biotinylated wild-type menin 5 nM, MLL-AF9-FLAG lysate, tested form: probably trifluoroacetate (second 19F si)
Protocol: Potencies of inhibitor compounds against menin/MLL binding were assessed by AlphaLISA assay using biotinylated (1) wild-type menin or (2) mutated menin (described in Nature (2012) Vol. 482, pp. 542-548) and MLL-AF9 fusion protein bearing a FLAG epitope at its C-terminus. Menin proteins were expressed in E. coli and covalently modified with biotin using EZ-Link™ Sulfo-NHS-Biotin (ThermoFisher Cat. No. 21217) according to manufacturer's protocol. MLL1-1,396 fused to AF91-92 and the C-terminal FLAG peptide was expressed in HEK293 cells and used as a lysate cleared at 21,000×g for 10 min.
Compounds (2 μL of solutions in DMSO) were dispensed in white 96-well half-area plates (Corning Cat. No. 3693) and incubated for 30 min at RT with 5 nM biotinylated menin and appropriate amount of MLL-AF9-FLAG lysate in 40 μL of 50 mM Tris-HCl buffer pH 7.4 containing 5% (v/v) DMSO, 50 mM NaCl, 0.01% (w/v) bovine serum albumin (BSA) and 1 mM DTT. To this incubation mixture, 40 μl of AlphaLISA anti-FLAG acceptor (PerkinElmer Cat. No. AL112C) and streptavidin donor (PerkinElmer Cat. No. 6760002) beads (10 μg/mL each) was added and incubation continued at RT for 60 min. Alpha (amplified luminescent proximity homogeneous assay) signal was measured on an Envision multi-label plate reader at the end of the incubation. All steps were conducted under dim fluorescent light. […]

Row | Compound | IC50 [nM]
1 | COC1CCC(C(=O)N2CC3(C2)CN(c2ncnc4sc(CC(F)(F)F)cc24)C3)CC1 (single isomer, unassigned) [Example 60a] | > 1000
2 | COC1CCC(C(=O)N2CC3(C2)CN(c2ncnc4sc(CC(F)(F)F)cc24)C3)CC1 (single isomer, unassigned) [Example 60b] | 100 to 1000
